The source of these data is patent US5686466A, “Tricyclic condensed heterocyclic compounds their production and use” (priority 1993, dated 1997).

By UniProt entry, the sequences of proteins in these tests, tags left out. Residues count along the entry.
UniProt P37136, 32-614 limits assumed: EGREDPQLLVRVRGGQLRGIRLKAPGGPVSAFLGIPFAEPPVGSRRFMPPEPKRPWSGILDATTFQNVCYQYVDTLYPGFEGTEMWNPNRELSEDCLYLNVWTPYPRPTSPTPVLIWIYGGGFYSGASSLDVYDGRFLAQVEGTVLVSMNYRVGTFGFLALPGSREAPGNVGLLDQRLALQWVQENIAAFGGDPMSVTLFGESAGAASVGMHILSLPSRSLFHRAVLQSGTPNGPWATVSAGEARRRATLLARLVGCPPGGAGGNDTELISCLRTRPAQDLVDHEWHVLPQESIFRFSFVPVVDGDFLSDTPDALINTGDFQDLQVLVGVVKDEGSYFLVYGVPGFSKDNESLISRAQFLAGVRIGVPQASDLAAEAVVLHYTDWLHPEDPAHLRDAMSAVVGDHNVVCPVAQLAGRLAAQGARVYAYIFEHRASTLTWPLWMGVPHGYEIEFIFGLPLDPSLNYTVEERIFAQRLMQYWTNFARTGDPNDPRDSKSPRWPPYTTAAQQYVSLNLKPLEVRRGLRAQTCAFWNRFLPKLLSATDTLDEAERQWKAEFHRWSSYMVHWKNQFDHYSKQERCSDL

In this test the target is Acetylcholinesterase (Rattus norvegicus, UniProt P37136). Put plainly: cholinesterase inhibitory activity using (acetyl-[^3 H])-acetylcholine, S1 fraction of rat cerebral cortex homogenate. It counts as biochemical, male Wistar rat. The following applies: read-out: Acetylcholinesterase Inhibitory Activity IC50, 30 min incubation, tested form: 2HCl.3/2H2O.

Turning to `O=C(CCN1CCN(Cc2ccccc2)CC1)c1cc2c3c(c1)CC(=O)N3CCCCC2`, the IC50 came to 24 nM.
